# Earlier results in patent publication US20260007760A1, “CAMPTOTHECIN DERIVATIVES THAT BIND TO DDX5 PROTEIN AND PRODRUGS THEREOF” (priority 2022, published 2026).
# Legend:
# [1] = 0.8 mg/kg to 8.0 mg/kg once every 3 weeks, 22 patients; cited from earlier work
# [2] = human, in vivo; cited from earlier work
substance,measurement,setting,value
Enhertu,Dose-limiting toxicity,[1],No dose-limiting toxicity was observed
same,Dosage discontinuation due to adverse reactions,[2],35.3%
same,Dose reduction due to adverse reactions,[2],23.4%
